Results published in US20110039779A1 (published 2011).

Sequences of proteins named here, by UniProt entry; tags and fusion partners are left off. Residues count along the entry.
UniProt P08069, 31-935: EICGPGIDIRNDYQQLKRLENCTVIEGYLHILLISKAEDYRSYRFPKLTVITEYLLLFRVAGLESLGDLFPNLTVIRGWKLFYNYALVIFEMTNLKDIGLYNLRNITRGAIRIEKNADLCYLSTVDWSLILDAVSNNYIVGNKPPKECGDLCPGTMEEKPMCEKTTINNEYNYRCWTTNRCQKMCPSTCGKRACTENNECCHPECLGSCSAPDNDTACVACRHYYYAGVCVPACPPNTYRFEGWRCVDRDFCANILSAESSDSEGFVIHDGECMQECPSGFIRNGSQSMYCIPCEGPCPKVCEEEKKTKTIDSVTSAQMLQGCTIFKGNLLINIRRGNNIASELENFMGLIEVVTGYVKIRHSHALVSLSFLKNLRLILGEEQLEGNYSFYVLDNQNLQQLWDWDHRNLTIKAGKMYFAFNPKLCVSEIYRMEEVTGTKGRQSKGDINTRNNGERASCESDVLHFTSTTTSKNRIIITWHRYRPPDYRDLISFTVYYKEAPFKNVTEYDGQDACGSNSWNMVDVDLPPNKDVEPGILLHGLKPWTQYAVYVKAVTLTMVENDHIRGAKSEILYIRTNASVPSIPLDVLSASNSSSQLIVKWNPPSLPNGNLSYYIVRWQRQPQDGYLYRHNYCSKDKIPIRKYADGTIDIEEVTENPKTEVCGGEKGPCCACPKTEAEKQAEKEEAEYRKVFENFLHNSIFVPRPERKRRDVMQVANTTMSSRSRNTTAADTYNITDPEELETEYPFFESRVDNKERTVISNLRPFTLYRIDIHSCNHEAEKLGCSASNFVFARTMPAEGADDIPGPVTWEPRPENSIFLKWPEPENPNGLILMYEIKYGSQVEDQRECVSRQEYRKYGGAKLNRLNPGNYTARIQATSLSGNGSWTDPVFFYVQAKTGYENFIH
UniProt P08069, 31-1367 limits assumed: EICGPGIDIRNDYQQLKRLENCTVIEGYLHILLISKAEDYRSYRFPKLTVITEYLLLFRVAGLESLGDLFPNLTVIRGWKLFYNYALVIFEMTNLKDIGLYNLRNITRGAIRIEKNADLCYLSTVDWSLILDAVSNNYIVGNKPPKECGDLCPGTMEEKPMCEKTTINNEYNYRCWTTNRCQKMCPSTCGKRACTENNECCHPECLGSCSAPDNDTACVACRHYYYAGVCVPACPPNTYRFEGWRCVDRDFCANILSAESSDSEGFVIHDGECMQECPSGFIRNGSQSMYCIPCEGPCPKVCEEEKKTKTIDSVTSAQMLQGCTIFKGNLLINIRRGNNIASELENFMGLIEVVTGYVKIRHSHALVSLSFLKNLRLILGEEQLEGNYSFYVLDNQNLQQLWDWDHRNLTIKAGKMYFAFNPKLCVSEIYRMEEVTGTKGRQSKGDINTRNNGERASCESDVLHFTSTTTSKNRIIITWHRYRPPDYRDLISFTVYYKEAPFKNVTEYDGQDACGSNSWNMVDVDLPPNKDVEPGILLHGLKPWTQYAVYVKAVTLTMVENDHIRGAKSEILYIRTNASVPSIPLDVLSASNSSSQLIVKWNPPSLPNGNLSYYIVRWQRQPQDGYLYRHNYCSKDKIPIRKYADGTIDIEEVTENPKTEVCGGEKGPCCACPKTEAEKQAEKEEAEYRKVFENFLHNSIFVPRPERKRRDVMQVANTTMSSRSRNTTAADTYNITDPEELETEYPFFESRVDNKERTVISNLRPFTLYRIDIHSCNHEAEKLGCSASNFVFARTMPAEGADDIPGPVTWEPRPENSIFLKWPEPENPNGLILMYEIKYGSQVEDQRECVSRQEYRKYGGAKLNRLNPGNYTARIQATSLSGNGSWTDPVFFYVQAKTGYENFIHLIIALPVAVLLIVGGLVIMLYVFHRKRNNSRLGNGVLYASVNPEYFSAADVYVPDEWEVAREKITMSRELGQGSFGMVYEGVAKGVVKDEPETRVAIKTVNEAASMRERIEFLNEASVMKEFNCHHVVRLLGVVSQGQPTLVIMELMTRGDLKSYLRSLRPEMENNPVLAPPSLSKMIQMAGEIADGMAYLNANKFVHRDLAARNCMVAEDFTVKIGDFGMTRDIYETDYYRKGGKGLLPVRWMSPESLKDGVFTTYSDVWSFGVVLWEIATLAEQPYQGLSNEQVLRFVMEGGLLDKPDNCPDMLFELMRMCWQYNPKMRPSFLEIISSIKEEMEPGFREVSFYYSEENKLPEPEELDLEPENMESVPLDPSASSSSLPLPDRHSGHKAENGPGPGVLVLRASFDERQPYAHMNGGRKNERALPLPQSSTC

Columns and labels:
[1] = molecular target: T1, His-tagged soluble recombinant human IGF-IR (srhIGF-1R-his; R&D systems) (human, UniProt P08069 31-935); experiment: AlphaScreen competition with biotinylated hIGF-1 on srhIGF-1R-his
T1 construct: extracellular domain; Bought protein; also called extra-cellular domain of IGF-1R; not shown: His tag
Description: Binding Assays. […] Detection of the receptor ligand interaction was measured in an amplified luminescent proximity homogeneous assay (ALPHAScreen; BioSignal-Packard, Montreal). The assay was performed in 384-well Nunc™ white polystyrene microplates (Nalge Nunc International, Naperville, Ill.) with a final volume of 40 μL. […] Each concentration of competitor was assayed in duplicate. […] The second step of the assay was to add acceptor beads and the incubation continued for 0.5 hr. The final step was to add donor beads and the incubation continued for an additional 1 hr. […] Primary data were background corrected, normalized to buffer controls and then expressed as % Specific Binding. The data were fit to a four-parameter non-linear regression analysis (y=min+(max-min)/(1+10̂((log IC₅₀-x)*Hillslope))), which was used to determine IC₅₀ values. The Z′-factor for this assay is greater than 0.7 (Z′=1-(3σ++3σ−)/|μ+−μ−|) and the signal-to-background (SB) ratio was between 40 and 70.

[2] = molecular target: T2, human insulin-like growth factor-1 receptor (HIGF-1R) (human, UniProt P08069 31-1367); experiment: 125I-IGF-1 displacement, PEG-assay
T2 construct: Detergent-solubilised receptor purified on WGA-agarose; also called HIGFIR
Description: IGF-1R affinity studies were generally performed as follows. […] The day before harvest cells were moved to serum free conditions and before harvest the cells were rinsed with and ice cold PBS solution. The cells were solubilized in cold lysis buffer (4 ml lysis buffer/1×10⁸ cells); vortexed vigorously to lysis in lysis buffer (50 mM Hepes (pH 8.0); 150 mM NaCl; 1% Triton X-100; 2 mM EDTA; 10 μg/mlaprotinin; 0.5 mM PEFABLOC (Roche)); and the lysate centrifuged at 4° C., 20000 rpm, for 15 minutes. […] In some cases, human insulin receptor (HIR) affinity for select test peptides was similarly measured.

[3] = molecular target: T2, human insulin-like growth factor-1 …; experiment: 125I-IGF-1 displacement, SPA-assay
Excerpt: In certain cases, a scintillation proximity assay (SPA assay) was used to determine IGF-1R affinity.

| Binder | IC50 [1] [nM] | Kd [2] [nM] | Kd [3] [nM] |
| --- | --- | --- | --- |
| SFYSCLESLVNGPAEKSRGQWDGCRGSLDESFYDWFERQLG [F237] |  | 370 | 430 |
| ELQGFCELLATVTGVTGLGCLDYQPIE [F202] |  | 25000 |  |
| IFYSCLASLLHGGPQRNTGPWERCRR [F141] |  | 310 | 240 |
| ETFYACLEFLLSGNPEGNSGPWDRCREE [F226] |  | 1700 |  |
| SFYSCLGSLLTGAPQPIRGAWDRCR [F144] |  | 210 | 170 |
| GSLDESFYDWFERQLGWLDQERAWLWCEISGRGCLS [F105] |  | 12000 |  |
| EFFYDCLAALLQGVARYHDLCAVEITE [F135] |  | 1300 |  |
| DYKDCWARPCGDAANFYDWFVQQASKK [F178] |  |  | 5.3 |
| WLDQERAWLWCEISGRGCLSDDDKGSLDESFYDWFERQLG [F107] |  | 1400 |  |
| GSLDESFYRWFERQLEGGSGGSGLEQERAGTWCENSGRGCLH [F156] |  | 310 |  |
| ESFYSCLASLWSGTGGSSRGRWEGCRE [F163] |  | 2700 |  |
| SACQFDCHENFYDWFARQVSGGAAYG [F161] |  | 1700 |  |
| CWARPCGDAANFYDWFVQQAS (also called C1; D112) [F103] |  | 2300 |  |
| DDDKGSLDESFYDWFERQLGKKWLDQERAWLWCEISGRGCLS [F154] |  | 2400 |  |
| DDDKGSLDESFYDWFERQLGKKWLDQERAWLWCEISGRGCLS (the two parts are conjugated by POX2 (Pox = 8-amino-3,6-dioxaoctanoic acid; printed 'PDX2'), 80 conjugated by POX) [F184] |  |  | 2800 |
| WLDQERAWLWCEISGRGCLSGSLDESFYDWFERQLG [F106] |  | 1400 |  |
| EFLTRLLERLGLSWERGEAGGPYAQAE [F175] |  | 13000 |  |
| ESFYSCLDSLVTGTPQEDRGPWERCRE [F214] |  | 440 | 12000 |

| Binder | IC50 [1] [nM] | Kd [2] [nM] | Kd [3] [nM] |
| --- | --- | --- | --- |
| WLGQERDWEWCQVAGRGCLGGGSGGSGSLDDSFYGWFVRQLG [F155] |  | 1300 |  |
| CHGSLDESFYDWFERQLGKK (printed with 'CHO' before GSLDESFYDWFERQLGKK; not explained (may be an N-terminal aldehyde group)) [F146] |  | 1600 |  |
| VGRASGFPENFYDWFGRQLSLQSGEQ [F160] |  | 6700 |  |
| EYRQECACSVGAVGFLCGLACLARSGE [F206] |  | 16000 |  |
| DMGDVECEDPFYDWFACQVRDTEFDE [F115] |  | 15000 |  |
| SFYSCLESLVNGGAERSDGQWEGCR [F113] |  | 560 | 840 |
| SAAQLFFQESFYDWFLRQVAESSQPN [F162] |  | 2100 |  |
| ESFYSCLASLVTGIPRSNSGTQVFCREE [F227] |  | 140 | 330 |
| ENRSGELWEGYGWFNMQVRGE [F212] |  | 21000 |  |
| VEGRGLFYDLLRQLLARRQNG (N-terminal acetyl (Ac-)) [P238 (row r193, SEQ ID NO 203)] |  | 320 |  |
| ERRVACTQADGLLCESDPLKALLSYFE (this is the first) [F200 (row r140, SEQ ID NO 86)] |  | 54 |  |
| TFYSCLASLLTGPREQNRGAWERCRR [F142] |  |  | 35 |
| IWIACLDELLRGQVWSSCRRRAPIG [F166] |  | 1100 |  |
| GFREGNFYEWFQAQVT [F102] |  | 8300 |  |
| EERATPRWRGYEWFDAQVERE [F211] |  | 11000 |  |
| GVDEVRAWLWCQISGLGCES [F114] |  | 56 | 71 |
| ECDFYCALSRLSGQPRDRMPNYPGTSE [F204] |  | 2100 |  |

Continued, values first:

| IC50 [1] [nM] | Kd [2] [nM] | Kd [3] [nM] | Binder |
| --- | --- | --- | --- |
| 4300 |  |  | GGVGSGSRDESFYDWFERQLA [F275] |
|  |  | 22000 | GEHFCQLLISLCGDDCGPVNCGGGS [F436] |
|  |  | 290 | EGRVDDAFYEWFERQLGEEEDDQNWEGYNWFNEQLGK [F411] |
| 78 |  |  | SFYSCLESLVNGPAEKSRGQWDGCRK (also called RP33/F250; RP33) [F250] |
|  |  | 17000 | ELCQSWGVRIGWLAGLCPEEGRVDDAFYEWFERQLGE [F412] |
|  |  | 220 | SFYSCLASLVTGIPRSNSGTQVFCR [F422] |
|  | 710 | 2400 | EEDDQNWEGYNWFNEQLGK [F261] |
|  |  | 21000 | NFHDCLLDLSRGGPSSDWRRRCITA [F439] |
|  |  | 13000 | AWRYPEDDLEDWLARGRGYG [F435] |
|  | 280 |  | VEGRGLFYDLLRQLLARRQNG (N-terminal biotin (Biotin-), stands before F237, may be F236) [F238 (row r195, SEQ ID NO 207)] |
| 36 |  |  | ESYGDCRDRPCGDAPNFYDWFVQQASE [F270] |
|  | 1800 |  | ERDDQDWEGYEWFEEQVGK [F260] |
|  |  | 21000 | NFYDCLQDLSLGDPSVDWRRRCITA [F440] |
|  |  | 11000 | SFYDCLLDLSIGGPSSDWRRRCITA [F441] |
|  |  | 11000 | QFYGCLLDLSLKVPSFGWRRRCITA (N-terminal acetyl (Ac-)) [F421] |
|  |  | 360 | EEDDQNWEGYNWFNEQLGKEGRVDDAFYEWFERQLGE [F413] |
|  | 750 | 2300 | EDDDQNWEGYEWFERQLGK [F262] |
|  |  | 250 | TFYSCLASLLTGPREQNRGAWERCR [F423] |
|  |  | 18000 | GNGDGMFYQLLSLLVGRDMH [F433] |
